In patent US4797472A, “New peptide derivatives” (KabiVitrum AB, priority 1986, dated 1989):
Square brackets hold non-standard residues; d marks the D form. Peptide text beside a SMILES is read from it. * marks the point of attachment. pNA = O=[N+]([O-])c1ccc(N*)cc1; Cbz = O=C(OCc1ccccc1)*; Ms = CS(=O)(=O)*

Protein sequences, listed by entry. Tags and fused reporters are not part of them. Residues count along the entry.
UniProt P00743, 41-180 partner limits assumed: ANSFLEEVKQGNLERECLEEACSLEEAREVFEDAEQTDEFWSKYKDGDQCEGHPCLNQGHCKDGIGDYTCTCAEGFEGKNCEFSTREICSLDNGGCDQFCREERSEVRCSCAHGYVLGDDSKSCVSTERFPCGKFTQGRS
UniProt P00743, 234-492 limits assumed: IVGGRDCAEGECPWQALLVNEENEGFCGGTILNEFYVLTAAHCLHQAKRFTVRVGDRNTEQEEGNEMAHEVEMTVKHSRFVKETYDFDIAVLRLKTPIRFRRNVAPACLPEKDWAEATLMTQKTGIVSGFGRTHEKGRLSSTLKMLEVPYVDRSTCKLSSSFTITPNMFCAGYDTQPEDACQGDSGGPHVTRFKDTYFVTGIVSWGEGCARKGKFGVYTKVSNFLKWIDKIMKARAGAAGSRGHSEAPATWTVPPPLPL
UniProt P00742, 41-179 partner limits assumed: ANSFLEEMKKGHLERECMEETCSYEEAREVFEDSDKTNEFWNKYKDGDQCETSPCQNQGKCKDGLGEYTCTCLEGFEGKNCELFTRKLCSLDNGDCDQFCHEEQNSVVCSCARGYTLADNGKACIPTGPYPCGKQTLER
UniProt P00742, 235-488 limits assumed: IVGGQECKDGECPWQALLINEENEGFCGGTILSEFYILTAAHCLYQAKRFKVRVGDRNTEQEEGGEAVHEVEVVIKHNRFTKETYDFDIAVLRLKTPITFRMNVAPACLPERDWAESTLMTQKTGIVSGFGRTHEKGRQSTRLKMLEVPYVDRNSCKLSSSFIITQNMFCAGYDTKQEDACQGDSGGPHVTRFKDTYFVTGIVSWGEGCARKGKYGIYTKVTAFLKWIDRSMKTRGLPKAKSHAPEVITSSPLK

Assays:
[1] = target: FXa bovine (Bos taurus, UniProt P00743); experiment: Determination of the kinetic constants for FXa bovine (chromogenic/fluorogenic substrate hydrolysis); conditions: trisbuffer pH 8.3, I=0.25, 37° C.
[2] = target: T1, FXa human (Homo sapiens, UniProt P00742); experiment: Determination of kinetic constants for FXa human (plasma activated with RVV+CaCl2); type: biochemical; conditions: trisbuffer pH 7.0, I=0.25, 37° C.
T1 construct: from tissue; host or cells: human plasma
Method: The kinetic data for the substrates are determined by measuring the initial velocity of hydrolysis (Vi) at different substrate concentrations (Si) and at constant enzyme concentrations (Eo). The binding constant (Km) and the maximum velocity (Vmax) are obtained in known manner from Lineweaver-Burk-plot, then the Kcat is calculated (Hemker H. C. loc. cit.)
The substrates in concentrations between 0.1-0.7 mmol/l (Si) are mixed with FXa human plasma and treated according to the method as described by Aurell; L., et al. (Perspectives in Hemostatis, Ed. Fareed J. et al, New York, Pergamon Press 1981, p. 382-388).
10 μl test plasma, control or standard and 200 μl trisbuffer solution (0.05 mol/l tris, pH 7.0, I=0.25 (NaCl)), polybrene (0.1 g/l) are mixed and incubated at 37° C. for 2-4 minutes. 200 μl substrate (37° C.) in concentrations between 0.1-0.7 mmol/l dissolved in trisbuffer solution prepared according to the above are added. The mixture is well stirred and within 30 seconds 200 μl RVV+CaCl2 (20°-25° C.) are added and the mixture is stirred. The absorbance change is measured at once in a spectrophotometer at 405 nm and 37° C.

[3] = target: T2, Thrombin bovine (Bos taurus, UniProt P00735); experiment: Determination of thrombin sensitivity; type: biochemical; conditions: Kcat/Km FXa bovine divided by Kcat/Km thrombin bovine
T2 construct: Thrombin bovine (KabiVitrum) with a constant concentration E0 =1.3 nmol/l; purchased KabiVitrum

## CC(C)C[C@@H](NS(C)(=O)=O)C(=O)NCC(=O)N[C@@H](CCCNC(=N)N)C(=O)Nc1ccc([N+](=O)[O-])cc1 [CBS 31.39, CH3 SO2 --D--Leu--Gly--Arg--pNA.AcOH, reference compound] (Ms-[dL]-Gly-Arg-pNA)
[1]
  Kcat /Km (selectivity constant): 1.00 l/μmol · sek
[2]
  Vmax /Km: 0.057 min⁻¹
[3]
  ratio for the selectivity constant FXa bovine through thrombin: 3.2

## N=C(N)NCCC[C@H](NC(=O)CNC(=O)[C@@H](CCCNC(=N)N)NC(=O)OCc1ccccc1)C(=O)Nc1ccc([N+](=O)[O-])cc1 [Example 1, N^α --Z--D--Arg--Gly--Arg--pNA.2HCl] (Cbz-[dR]-Gly-Arg-pNA)
[1]
  Kcat /Km (selectivity constant): 2.27 l/μmol · sek
[2]
  Vmax /Km: 0.192 min⁻¹
[3]
  ratio for the selectivity constant FXa bovine through thrombin: 22.7

## CCS(=O)(=O)N[C@H](CCCNC(=N)N)C(=O)NCC(=O)N[C@@H](CCCNC(=N)N)C(=O)Nc1ccc([N+](=O)[O-])cc1 [Example 4, N^α --Ets--D--Arg--Gly--Arg--pNA.2HCl]
[1]
  Kcat /Km (selectivity constant): 1.42 l/μmol · sek
[2]
  Vmax /Km: 0.135 min⁻¹
[3]
  ratio for the selectivity constant FXa bovine through thrombin: 25.4

## COc1ccc(COC(=O)N[C@H](CCCNC(=N)N)C(=O)NCC(=O)N[C@@H](CCCNC(=N)N)C(=O)Nc2ccc([N+](=O)[O-])cc2)cc1 [Example 9, N^α --Moz--D--Arg--Gly--Arg--pNA.2HCl]
[1]
  Kcat /Km (selectivity constant): 2.06 l/μmol · sek
[2]
  Vmax /Km: 0.242 min⁻¹
[3]
  ratio for the selectivity constant FXa bovine through thrombin: 13.6

## N=C(N)NCCC[C@H](NC(=O)CNC(=O)[C@@H](CCCNC(=N)N)NS(=O)(=O)Cc1ccccc1)C(=O)Nc1ccc([N+](=O)[O-])cc1 [Example 16, N^α --Bzls--D--Arg--Gly--Arg--pNA.2HCl]
[1]
  Kcat /Km (selectivity constant): 2.75 l/μmol · sek
[2]
  Vmax /Km: 0.300 min⁻¹
[3]
  ratio for the selectivity constant FXa bovine through thrombin: 25.9
